Test results taken from patent US10004732B2 (Novartis AG, priority 2014, dated 2018).

Sequences of proteins named here, by UniProt entry; tags and fusion partners are left off.
UniProt P42336, whole entry: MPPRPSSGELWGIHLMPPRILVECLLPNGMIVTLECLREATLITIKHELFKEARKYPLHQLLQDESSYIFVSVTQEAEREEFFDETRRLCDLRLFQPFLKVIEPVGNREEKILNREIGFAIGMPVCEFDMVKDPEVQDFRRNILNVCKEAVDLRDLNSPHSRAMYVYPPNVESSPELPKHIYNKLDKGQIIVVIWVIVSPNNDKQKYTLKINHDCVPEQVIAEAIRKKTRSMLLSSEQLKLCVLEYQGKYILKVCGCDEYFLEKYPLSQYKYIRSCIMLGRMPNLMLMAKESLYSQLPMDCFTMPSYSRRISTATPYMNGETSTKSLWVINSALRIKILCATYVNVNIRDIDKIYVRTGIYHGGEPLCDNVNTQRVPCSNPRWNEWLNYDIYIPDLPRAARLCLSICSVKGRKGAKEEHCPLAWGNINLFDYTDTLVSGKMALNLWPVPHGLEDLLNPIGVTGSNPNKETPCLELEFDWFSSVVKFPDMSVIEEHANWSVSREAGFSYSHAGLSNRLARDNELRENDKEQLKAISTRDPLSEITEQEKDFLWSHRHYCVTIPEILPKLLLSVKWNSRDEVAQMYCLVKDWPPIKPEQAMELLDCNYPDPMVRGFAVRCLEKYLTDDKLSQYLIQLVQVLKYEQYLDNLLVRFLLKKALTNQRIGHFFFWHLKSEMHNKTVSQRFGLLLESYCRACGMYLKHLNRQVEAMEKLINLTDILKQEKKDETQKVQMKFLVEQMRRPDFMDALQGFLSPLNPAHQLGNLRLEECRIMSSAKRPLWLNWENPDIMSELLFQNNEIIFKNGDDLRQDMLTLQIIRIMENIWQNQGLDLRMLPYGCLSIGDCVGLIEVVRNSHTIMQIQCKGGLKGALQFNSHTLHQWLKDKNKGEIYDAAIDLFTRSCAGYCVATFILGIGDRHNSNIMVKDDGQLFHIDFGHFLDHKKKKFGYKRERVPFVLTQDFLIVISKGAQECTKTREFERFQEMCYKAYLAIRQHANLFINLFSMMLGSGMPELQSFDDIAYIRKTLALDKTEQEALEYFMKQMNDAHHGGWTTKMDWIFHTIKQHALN

Molecular target: PI 3-kinase alpha (Homo sapiens, UniProt P42336)
Experiment: Cellular assay H2, p-AKT (Ser473) in Rat-1 cells, HTRF format
Assay type: cell-based
Conditions: asterisked data: version H2 (HTRF), read-out: Assay H PI3Kα

IC50: > 10 µM
SMILES: Cc1nc(N)ncc1-c1ccc(Cl)c(S(=O)(=O)NCCO)c1 [(xii), reference compound]
